Experimental data published in patent US9399631B2, “Polyphenol proteasome inhibitors, synthesis, and methods of use” (UNIVERSITY OF SOUTH FLORIDA, priority 2003, dated 2016).

By UniProt entry, the sequences of proteins in these tests, tags left out. Residues count along the entry.
UniProt G1T4Q9, 1-263: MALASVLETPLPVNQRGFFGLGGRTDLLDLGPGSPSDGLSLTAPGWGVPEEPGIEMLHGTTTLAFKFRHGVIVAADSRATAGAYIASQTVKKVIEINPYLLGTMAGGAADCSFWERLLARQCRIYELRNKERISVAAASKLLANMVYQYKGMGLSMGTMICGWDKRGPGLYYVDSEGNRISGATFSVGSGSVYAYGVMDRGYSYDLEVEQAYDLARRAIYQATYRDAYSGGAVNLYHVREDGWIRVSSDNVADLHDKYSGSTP

Molecular target: 20S eukaryotic proteasome (Oryctolagus cuniculus, UniProt G1T4Q9)
Experiment: Inhibition of chymotrypsin-like activity of purified eukaryotic 20S proteasome (Suc-Leu-Leu-Val-Tyr-AMC)
Conditions: rabbit 20S proteasome

IC50: 505 nM
SMILES: O=C(O[C@@H]1Cc2c(O)cc(O)cc2O[C@H]1c1ccc(O)c(O)c1)c1cc(O)c(O)c(O)c1
